Test results reported in ChEMBL document CHEMBL1144350, “Synthesis and evaluation of imidazolylmethylenetetrahydronaphthalenes and imidazolylmethyleneindanes: potent inhibitors of aldosterone synthase” (J Med Chem, 2005).

The chains behind the UniProt entries cited, without tags or fusion partners. Where a name states a change or a piece, a line headed by the entry shows the natural chain unless it says otherwise.
UniProt P11511: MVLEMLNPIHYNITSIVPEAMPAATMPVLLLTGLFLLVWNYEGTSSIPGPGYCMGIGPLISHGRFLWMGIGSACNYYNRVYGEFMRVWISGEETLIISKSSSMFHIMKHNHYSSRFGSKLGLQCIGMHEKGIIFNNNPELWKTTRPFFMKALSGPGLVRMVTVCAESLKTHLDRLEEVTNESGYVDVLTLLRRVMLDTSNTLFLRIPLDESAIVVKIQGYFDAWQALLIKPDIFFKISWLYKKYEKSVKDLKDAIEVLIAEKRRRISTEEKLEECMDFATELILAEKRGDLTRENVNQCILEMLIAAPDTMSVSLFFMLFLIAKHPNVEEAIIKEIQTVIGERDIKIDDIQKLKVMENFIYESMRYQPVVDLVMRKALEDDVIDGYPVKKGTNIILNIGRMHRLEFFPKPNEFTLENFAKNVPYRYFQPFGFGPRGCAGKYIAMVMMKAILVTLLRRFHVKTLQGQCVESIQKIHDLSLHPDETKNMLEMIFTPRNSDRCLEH

What was measured:
Aromatase = Aromatase (Homo sapiens, UniProt P11511)
[1] = target: T1, Cytochrome P450 11B1, mitochondrial (Homo sapiens, UniProt P15538); assay: In vitro inhibition of [14C]deoxycorticosterone binding to human cytochrome P450 11B1 expressed in hamster V79 MZh cells; format: cell-based
T1 sequence (P15538 whole entry): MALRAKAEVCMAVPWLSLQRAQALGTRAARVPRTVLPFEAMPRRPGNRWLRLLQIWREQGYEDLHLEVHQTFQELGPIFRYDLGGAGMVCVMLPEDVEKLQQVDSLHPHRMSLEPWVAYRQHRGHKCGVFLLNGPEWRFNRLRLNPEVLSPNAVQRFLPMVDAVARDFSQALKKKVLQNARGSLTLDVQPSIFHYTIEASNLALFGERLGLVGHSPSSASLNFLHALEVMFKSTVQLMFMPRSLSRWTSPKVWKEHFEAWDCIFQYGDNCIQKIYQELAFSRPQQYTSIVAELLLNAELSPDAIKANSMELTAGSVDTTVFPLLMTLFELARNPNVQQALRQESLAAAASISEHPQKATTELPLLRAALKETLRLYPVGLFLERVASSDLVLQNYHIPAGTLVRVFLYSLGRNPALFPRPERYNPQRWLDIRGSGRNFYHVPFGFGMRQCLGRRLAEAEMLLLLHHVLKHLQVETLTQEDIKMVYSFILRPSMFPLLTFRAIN

[2] = target: T2, Cytochrome P450 11B2, mitochondrial (Homo sapiens, UniProt P19099); assay: In vitro inhibition of [14C]deoxycorticosterone binding to human cytochrome P450 11B2 expressed in hamster V79 MZh cells; format: cell-based
T2 sequence (P19099 whole entry): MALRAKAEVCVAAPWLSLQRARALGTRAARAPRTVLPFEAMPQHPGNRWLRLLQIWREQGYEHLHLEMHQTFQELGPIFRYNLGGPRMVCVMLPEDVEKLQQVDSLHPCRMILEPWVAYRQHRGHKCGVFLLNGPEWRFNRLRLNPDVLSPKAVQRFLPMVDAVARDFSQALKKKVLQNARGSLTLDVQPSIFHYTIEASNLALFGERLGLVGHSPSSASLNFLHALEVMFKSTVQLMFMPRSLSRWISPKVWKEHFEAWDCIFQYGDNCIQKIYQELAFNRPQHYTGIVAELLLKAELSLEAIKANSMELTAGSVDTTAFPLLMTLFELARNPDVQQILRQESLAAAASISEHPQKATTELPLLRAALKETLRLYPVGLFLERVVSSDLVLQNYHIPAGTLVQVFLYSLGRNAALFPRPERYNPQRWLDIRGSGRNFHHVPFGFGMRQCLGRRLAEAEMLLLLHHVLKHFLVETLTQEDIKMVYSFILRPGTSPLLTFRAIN

| SMILES | IC50 (Aromatase) [nM] | IC50 [1] [nM] | IC50 [2] [nM] |
| --- | --- | --- | --- |
| Brc1ccc2c(c1)CC/C2=C/c1c[nH]cn1 | 100 | – | – |
| Clc1ccc2c(c1)CC/C2=C/c1c[nH]cn1 | – | 19.5 | 3.7 |
| Fc1ccc2c(c1)CC/C2=C/c1c[nH]cn1 | – | 11.2 | – |
| C(=C1\CCCc2ccccc21)/c1c[nH]cn1 | – | 3.3 | 9.6 |
